Molecular target: T1, MDMX (Homo sapiens, UniProt O15151)
T1 sequence (O15151 1-490): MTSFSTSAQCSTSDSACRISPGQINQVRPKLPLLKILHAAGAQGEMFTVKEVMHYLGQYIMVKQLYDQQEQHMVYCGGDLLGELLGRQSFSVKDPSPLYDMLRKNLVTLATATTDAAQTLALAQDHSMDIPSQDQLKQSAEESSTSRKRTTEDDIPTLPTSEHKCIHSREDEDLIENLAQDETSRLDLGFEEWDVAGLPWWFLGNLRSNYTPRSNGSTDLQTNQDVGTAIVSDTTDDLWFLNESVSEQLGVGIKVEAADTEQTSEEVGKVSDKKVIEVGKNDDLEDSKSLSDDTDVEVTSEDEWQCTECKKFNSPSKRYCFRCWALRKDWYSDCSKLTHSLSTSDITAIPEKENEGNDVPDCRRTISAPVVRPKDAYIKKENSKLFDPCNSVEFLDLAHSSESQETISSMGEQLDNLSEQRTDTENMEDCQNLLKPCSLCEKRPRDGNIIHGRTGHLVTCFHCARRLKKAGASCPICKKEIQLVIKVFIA
Assay: Binding affinity study (Table 14)

Kd: 480 nM
Substance: WT p53: wild type p53, comparator for binding to MDM2 and MDMX

From patent US10471120B2, “Peptidomimetic macrocycles and uses thereof” (AILERON THERAPEUTICS, INC., priority 2014, dated 2019)
